Where “and” joins values, the source holds several entries; their conditions need not be identical. Equal entries are not always repeated.
Molecular target: T1, wild-type NK2R receptor (Rattus norvegicus, UniProt P16610)
T1 construct: expressed in transfected cells; host or cells: HEK 293 cells, construct pCEP4-NK2R
Experiment: Displacement of 3H SR 48968 binding (competition experiment), HEK 293 cells expressing wild-type NK2R
Conditions: read-out: KI, displacement of 3H SR 48968; 1 nM 3H SR 48968, 25,000 cells, 4° C.
Procedure: The curves for the displacement of the binding of ^3HSR 48968 with a non-radioactive ligand are carried out in 10 mM Hepes, 137.5 mM NaCl, 1.25 mM MgCl2, 1.25 mM CaCl2, 6 mM KCl, 5.6 mM glucose, 0.4 mM NaH2PO4, 0.1% (w/v) BSA, pH 7.4 buffer at 4° C. for 1 h 30 min. in the presence or absence of NKA at 1 μM final. Each 500 μl sample contains 25,000 cells, 1 nM 3HSR 48968 and a non-radioactive ligand at various concentrations (from 1 nM to 10 μM). The incubation is carried out for one hour at 4° C. Filtration is carried out at the end of incubation, as described in 3b).

Chains of the proteins cited; added tags and fusions are not shown.
UniProt P16610, whole entry: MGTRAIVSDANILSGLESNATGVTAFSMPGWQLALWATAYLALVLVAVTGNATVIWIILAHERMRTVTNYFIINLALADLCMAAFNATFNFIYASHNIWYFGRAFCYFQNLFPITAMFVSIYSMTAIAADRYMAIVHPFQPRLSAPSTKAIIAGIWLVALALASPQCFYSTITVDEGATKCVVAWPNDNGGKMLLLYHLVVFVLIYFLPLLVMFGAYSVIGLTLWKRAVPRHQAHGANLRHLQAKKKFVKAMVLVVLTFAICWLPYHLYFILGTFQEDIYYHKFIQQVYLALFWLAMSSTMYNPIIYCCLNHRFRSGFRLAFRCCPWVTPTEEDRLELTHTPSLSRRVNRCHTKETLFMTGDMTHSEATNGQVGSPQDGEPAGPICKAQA

For neurokinin A [NKA], the Ki was 3.03 nM and 3 nM.

Source: patent US7202046B2, “Use of a fluorescent protein for detecting interaction between a target protein and its ligand” (priority 1997, dated 2007)
